These results are taken from publication PMC4386669 (Cell reports, 2014).

The chains behind the UniProt entries cited, without tags or fusion partners.
UniProt P09874, whole entry: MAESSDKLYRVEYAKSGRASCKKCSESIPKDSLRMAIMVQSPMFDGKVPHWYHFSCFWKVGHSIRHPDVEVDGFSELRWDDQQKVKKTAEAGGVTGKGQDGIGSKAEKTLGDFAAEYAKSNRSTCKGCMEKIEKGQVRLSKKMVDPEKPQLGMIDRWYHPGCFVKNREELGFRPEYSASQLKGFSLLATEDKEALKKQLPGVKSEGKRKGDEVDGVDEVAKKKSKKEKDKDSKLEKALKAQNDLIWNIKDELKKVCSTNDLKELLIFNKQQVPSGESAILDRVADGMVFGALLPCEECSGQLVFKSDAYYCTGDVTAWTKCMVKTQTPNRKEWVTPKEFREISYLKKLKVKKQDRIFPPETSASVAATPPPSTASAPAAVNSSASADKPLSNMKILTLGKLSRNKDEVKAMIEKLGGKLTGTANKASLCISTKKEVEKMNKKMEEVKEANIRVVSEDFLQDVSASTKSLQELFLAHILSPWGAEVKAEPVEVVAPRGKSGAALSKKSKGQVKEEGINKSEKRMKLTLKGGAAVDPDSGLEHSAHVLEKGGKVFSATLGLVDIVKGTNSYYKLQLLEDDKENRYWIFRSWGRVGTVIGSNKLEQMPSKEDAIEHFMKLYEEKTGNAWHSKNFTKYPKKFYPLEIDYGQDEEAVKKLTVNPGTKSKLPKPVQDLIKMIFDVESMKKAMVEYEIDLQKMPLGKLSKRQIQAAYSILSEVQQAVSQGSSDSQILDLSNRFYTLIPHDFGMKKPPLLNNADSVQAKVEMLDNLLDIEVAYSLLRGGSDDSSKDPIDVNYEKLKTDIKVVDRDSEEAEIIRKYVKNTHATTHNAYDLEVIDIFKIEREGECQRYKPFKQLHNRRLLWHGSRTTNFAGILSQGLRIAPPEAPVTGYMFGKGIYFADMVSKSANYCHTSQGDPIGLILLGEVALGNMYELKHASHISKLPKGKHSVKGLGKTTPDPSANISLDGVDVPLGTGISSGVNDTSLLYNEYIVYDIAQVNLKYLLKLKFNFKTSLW

This experiment addresses PARP1 (Homo sapiens, UniProt P09874). The following applies: 10 micromolar PARPi + 0.01% MMS.

With `Cn1ncnc1[C@H]1c2n[nH]c(=O)c3cc(F)cc(c23)N[C@@H]1c1ccc(F)cc1` [BMN-673], the “PARP trapping potential (rank order)” value is “BMN-673 > olaparib > veliparib”.
